Sequences of proteins named here, by UniProt entry; tags and fusion partners are left off.
UniProt P34976, whole entry: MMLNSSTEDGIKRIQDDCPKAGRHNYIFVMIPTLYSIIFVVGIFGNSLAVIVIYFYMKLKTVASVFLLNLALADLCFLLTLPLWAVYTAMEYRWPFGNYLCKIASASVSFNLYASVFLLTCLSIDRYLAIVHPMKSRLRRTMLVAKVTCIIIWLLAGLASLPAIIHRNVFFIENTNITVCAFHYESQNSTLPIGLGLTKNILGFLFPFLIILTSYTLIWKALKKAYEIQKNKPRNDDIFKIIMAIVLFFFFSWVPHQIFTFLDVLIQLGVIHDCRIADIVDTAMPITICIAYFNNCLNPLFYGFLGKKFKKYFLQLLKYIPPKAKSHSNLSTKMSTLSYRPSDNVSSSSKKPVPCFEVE

According to ChEMBL document CHEMBL1153678, “Bromobenzofurans : a new class of potent, non-peptide antagonists of angiotensin II” (Bioorg Med Chem Lett, 1991):

Target: Type-1 angiotensin II receptor (Oryctolagus cuniculus) (UniProt P34976)
Test: Angiotensin II receptor, type 1 antagonist activity in rabbit isolated thoracic aorta
Assay type: functional, tissue-based

- pKB: 9.8
Compound: CCCCc1nc(Cl)c(C(=O)O)n1Cc1ccc2oc(-c3ccccc3-c3nnn[nH]3)c(Br)c2c1
